The OPERA property sets (Mansouri et al. 2018)

Details: experimental values compiled from the literature

| Structure (SMILES) | solubility [mM] |
| --- | --- |
| O=[N+]([O-])c1cc(O)cc([N+](=O)[O-])c1 | 21.7 (≈ 4000 µg/mL) |
| O=[N+]([O-])OCCO[N+](=O)[O-] | 44.7 (≈ 6800 µg/mL) |

Converted amounts (≈) assume the structure as drawn.
